From PubChem BioAssay AID463190 (Sanford-Burnham Center for Chemical Genomics, 2010) come the findings set out here.

The entries are a selection whose mix differs from that of the whole data set. Activity calls are given as the source filed them.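 Rule for the calls: active = inhibition of at least 40%; inactive = the rest.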

The nature of the assay: growth inhibition of tim10-1 ts yeast – luminescence, uHTS, primary screen (AID 463190).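 Note: mutant grown at 25 °C; 0% = DMSO wells with yeast and 100% = wells holding no yeast.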 Particulars: S. cerevisiae tim10-1 ts strain growth, BacTiter-Glo, 24 h; at 20 µM; stronger effect = higher value.
The term inhibition denotes the drop in the measured response relative to a control, in per cent. Take `CCC(=O)N(c1ccccc1)C1(COC)CCN(CCn2nnn(CC)c2=O)CC1`: the inhibition is inactive: -0.119%.

Take `CCC(=O)N(c1ccccc1)C1(COC)CCN(CCc2cccs2)CC1`: the inhibition is inactive: 23%.
